Data: patent US20150004189A1

Molecular target: T1, HLA-DQ molecule DQB1*0501 (human)
T1 chain 1: not shown
T1 chain 2: not shown
Assay: competition: inhibition of radiolabeled peptide binding to purified HLA

## QGVADAYITLVTLPK (modifications not checked) [Alt a 1 peptide, position 141, Peptide ID 3324.0011]
  IC50: 8.01 µM

## IASLFAAAGLAAAAP (modifications not checked) [Alt a 1 peptide, position 6, Peptide ID 3324.0015]
  IC50: 24.1 µM
